According to patent publication US10421747B2, “Quinoxaline derivatives useful as FGFR kinase modulators” (ASTEX THERAPEUTICS LTD, priority 2014, dated 2019):

Tested on: Ba/F3-KDR-transfected cells
Assay: Ba/F3-KDR (minus IL3 or plus IL3) cellular proliferation assay
Format: cell-based
Conditions: plus IL3 (10 ng/ml murine IL3), counterscreen; read-out: BAF3-KDR (PLUS IL3 pIC50) (converted)

COc1cc(OC)c2c(c1)N(c1ccc3ncc(-c4cnn(C)c4)nc3c1)CCN(C(C)C)C2 [Compound 1]
IC50: > 10 µM
